## Measured affinities in a library of Ab-91 heavy chain variants

From the AlphaSeq antibody data of Engelhart et al. 2022 (doi:10.1038/s41597-022-01779-4), copy in the FLAb collection.

Target: peptide PDVDLGDISGINAS, taken from heptad repeat 2 (HR2) of SARS-CoV-2 spike.

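The parent was found by panning a naive human phage display library on the peptide. In library AAYL51, one, two or three CDR residues were substituted; doubles and triples were drawn at random. In AlphaSeq, yeast of one mating type display the scFv and yeast of the other type display the target. The frequency of each diploid, read from paired DNA barcodes, reflects how well the two displayed proteins bind. A regression on co-assayed BCL2-family reference pairs converts the normalised counts of each replicate to an apparent Kd. Mating was done three times.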

Each scFv is VL, a (GGGGS)3 linker, VH, as in the parent Ab-91, and differs from it in the CDRs of the heavy chain only.
VL: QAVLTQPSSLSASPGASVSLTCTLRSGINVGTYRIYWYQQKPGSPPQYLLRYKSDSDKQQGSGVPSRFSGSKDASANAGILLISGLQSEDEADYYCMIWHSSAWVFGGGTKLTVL
VH: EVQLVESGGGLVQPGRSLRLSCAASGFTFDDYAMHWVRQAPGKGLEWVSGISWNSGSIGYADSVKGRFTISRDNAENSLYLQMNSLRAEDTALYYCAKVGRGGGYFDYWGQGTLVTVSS

The whole VH of each variant is written out.
Affinities are written as log10 Kd with Kd in nM; a lower number is a better binder.
A mean of the replicates is given; it leaves out those without a signal.
"nd" means that the variant was in the library but no mating with the target was seen in any replicate; the authors take this as a sign of poor binding, and no number exists.
Three control strains display no target. For library AAYL51, 21% of the pairings with them gave a signal, with a median of 4.54 and one signal in twenty below 3.26, so weak values seen in few replicates may be background. Also given: how often the same scFv was detected with the empty control strains.

With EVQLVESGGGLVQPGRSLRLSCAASGSTFDDYAMHWVRQAPGKGLEWVSGISWNSGSIGYADSVKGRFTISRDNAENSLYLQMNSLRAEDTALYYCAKDGRGGHYFDYWGQGTLVTVSS the result was nd (0 of 3 replicates; controls 1 of 9).
With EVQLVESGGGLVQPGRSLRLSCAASGDTFDDYVMDWVRQAPGKGLEWVSGISWNSGSIGYADSVKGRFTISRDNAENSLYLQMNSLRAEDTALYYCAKVGRGGGYFDYWGQGTLVTVSS the result was 2.78 (1 of 3 replicates; controls 2 of 9).
With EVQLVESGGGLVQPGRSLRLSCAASGFTFADLAMHWVRQAPGKGLEWVSGISWNSGSTGYADSVKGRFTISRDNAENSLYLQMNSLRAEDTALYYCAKVGRGGGYFDYWGQGTLVTVSS the result was nd (0 of 3 replicates; controls 0 of 9).
With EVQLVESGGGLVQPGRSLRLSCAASRFTFDDYAMHWVRQAPGKGLEWVSGISWNSGSIGYADSVKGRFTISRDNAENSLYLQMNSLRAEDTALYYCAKVGRQYGYFDYWGQGTLVTVSS the result was 4.00 (1 of 3 replicates; controls 0 of 9).
With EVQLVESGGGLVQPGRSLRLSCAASGFTFDDYAMHWVRQAPGKGLEWVSGISWNVGSIGYLDSVKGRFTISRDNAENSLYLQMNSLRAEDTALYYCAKVGIGGGYFDYWGQGTLVTVSS the result was 4.26 (2 of 3 replicates; controls 0 of 9).
With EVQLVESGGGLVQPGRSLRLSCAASGFTFDGYAMHWVRQAPGKGLEWVSGISWNSASIGYADSVKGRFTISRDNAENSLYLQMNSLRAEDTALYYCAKVSRGGGYFDYWGQGTLVTVSS the result was 4.91 (1 of 3 replicates; controls 0 of 9).
With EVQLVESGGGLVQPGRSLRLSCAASNFTFDDYAMHWVRQAPGKGLEWVSGISWNSGSIGYADSVKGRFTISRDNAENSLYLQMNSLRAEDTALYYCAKVGRGHGYFQYWGQGTLVTVSS the result was nd (0 of 3 replicates; controls 0 of 9).
With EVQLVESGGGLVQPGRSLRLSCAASGFTFDDYAMHWVRQAPGKGLEWVSGISWNSGSIGYATSVKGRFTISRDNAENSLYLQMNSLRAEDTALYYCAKYGRGGGYQDYWGQGTLVTVSS the result was nd (0 of 3 replicates; controls 0 of 9).
With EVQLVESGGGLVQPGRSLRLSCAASGFYFDDYAMHWVRQAPGKGLEWVSGISWNSGSWGYADSVKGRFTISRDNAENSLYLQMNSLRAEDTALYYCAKVGRKGGYFDYWGQGTLVTVSS the result was 3.98 (1 of 3 replicates; controls 1 of 9).
With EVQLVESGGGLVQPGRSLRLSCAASGFTFDDIAMQWVRQAPGKGLEWVSGISWNSGSIGYADSVYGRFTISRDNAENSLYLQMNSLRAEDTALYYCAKVGRGGGYFDYWGQGTLVTVSS the result was 4.87 (3 of 3 replicates; controls 4 of 9).
With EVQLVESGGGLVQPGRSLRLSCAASGFTFDDYAMHWVRQAPGKGLEWVSGIRWNSGSIGYADSVKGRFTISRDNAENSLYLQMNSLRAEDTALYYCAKVGRGGGEKDYWGQGTLVTVSS the result was 5.11 (2 of 3 replicates; controls 3 of 9).
With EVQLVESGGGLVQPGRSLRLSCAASGFTFDDYAMHWVRQAPGKGLEWVSGRSWNSGSIAYADSVKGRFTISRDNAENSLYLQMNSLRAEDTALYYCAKVGRGGGYFDYWGQGTLVTVSS the result was nd (0 of 3 replicates; controls 0 of 9).
With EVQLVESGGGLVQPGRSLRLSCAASGFTFDDYAMHWVRQAPGKGLEWVSGISWNYGSIGYADSVKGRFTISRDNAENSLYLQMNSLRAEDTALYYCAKVGRVGGPFDYWGQGTLVTVSS the result was 4.89 (1 of 3 replicates; controls 1 of 9).
With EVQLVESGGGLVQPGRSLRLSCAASGFTFDDYAMHWVRQAPGKGLEWVSGHFWNSGSCGYADSVKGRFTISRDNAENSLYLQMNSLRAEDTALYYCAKVGRGGGYFDYWGQGTLVTVSS the result was 5.08 (2 of 3 replicates; controls 3 of 9).
With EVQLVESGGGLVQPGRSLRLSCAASGFTHDDYAMHWVRQAPGKGLEWVSGISWNTGSIGYACSVKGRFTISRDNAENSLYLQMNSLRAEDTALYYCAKVGRGGGYFDYWGQGTLVTVSS the result was 4.21 (1 of 3 replicates; controls 0 of 9).
With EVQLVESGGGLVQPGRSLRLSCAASGFTFDDYAMHWVRQAPGKGLEWVSGISWNSGSIEWADSVKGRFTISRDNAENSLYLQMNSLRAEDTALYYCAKVGRGGGYFDIWGQGTLVTVSS the result was nd (0 of 3 replicates; controls 0 of 9).
With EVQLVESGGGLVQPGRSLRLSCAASGFTFHDYAMHWVRQAPGKGLEWVSGISWNSGSIGYAISVKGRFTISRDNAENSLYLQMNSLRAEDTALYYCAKVGRGFGYFDYWGQGTLVTVSS the result was 1.65 (3 of 3 replicates; controls 0 of 9).
With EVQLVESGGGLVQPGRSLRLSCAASGFTFDDPAMHWVRQAPGKGLEWVSGKDWNSGSIGYADSVKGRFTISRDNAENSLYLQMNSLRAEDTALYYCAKVGRGGGYFDYWGQGTLVTVSS the result was nd (0 of 3 replicates; controls 0 of 9).
With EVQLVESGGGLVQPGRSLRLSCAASGFTFDDYAMHWVRQAPGKGLEWVSGISWNSGTIGYADSTKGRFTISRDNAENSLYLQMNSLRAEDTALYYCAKVGHGGGYFDYWGQGTLVTVSS the result was nd (0 of 3 replicates; controls 2 of 9).
With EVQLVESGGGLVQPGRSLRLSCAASGFTFDDYAMHWVRQAPGKGLEWVSGISWNCGINGYADSVKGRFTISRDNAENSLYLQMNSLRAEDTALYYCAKVGRGGGYFDYWGQGTLVTVSS the result was 3.91 (3 of 3 replicates; controls 0 of 9).
With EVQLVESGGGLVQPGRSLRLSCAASGFTFDDYFMHWVRQAPGKGLEWVSGISWWSGSIGYADSVKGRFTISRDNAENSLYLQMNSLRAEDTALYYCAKVGRGHGYFDYWGQGTLVTVSS the result was 5.56 (1 of 3 replicates; controls 0 of 9).
With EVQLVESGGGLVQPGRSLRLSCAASGFTRDDYAMHWVRQAPGKGLEWVSGIYWNSGSIGYADSVKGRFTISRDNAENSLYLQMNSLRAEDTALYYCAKIGRGGGYFDYWGQGTLVTVSS the result was 4.37 (1 of 3 replicates; controls 7 of 9).
With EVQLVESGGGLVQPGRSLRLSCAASGFTLDDYAMHWVRQAPGKGLEWVSGISWNSGSNGYADSVKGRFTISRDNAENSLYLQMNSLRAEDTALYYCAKVGRGLGYFDYWGQGTLVTVSS the result was 4.68 (2 of 3 replicates; controls 2 of 9).
With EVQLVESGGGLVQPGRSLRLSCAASGFTFDDYAMHWVRQAPGKGLEWVSGISWNSGAIGYAESVKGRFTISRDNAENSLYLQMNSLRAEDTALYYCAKVGRGNGYFDYWGQGTLVTVSS the result was 1.05 (3 of 3 replicates; controls 3 of 9).
With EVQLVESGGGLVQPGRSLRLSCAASGFTFDDYAMHWVRQAPGKGLEWVSDISWNSGSIGYADSNKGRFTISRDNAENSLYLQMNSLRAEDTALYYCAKVGRGGGYFTYWGQGTLVTVSS the result was nd (0 of 3 replicates; controls 2 of 9).
With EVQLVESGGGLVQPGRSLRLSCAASGFTFDDNAVHWVRQAPGKGLEWVSGISWNSGSIGYADSVKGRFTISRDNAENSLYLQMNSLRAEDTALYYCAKVGRGGGYFDFWGQGTLVTVSS the result was nd (0 of 3 replicates; controls 1 of 9).

Extract of 3 entries:

With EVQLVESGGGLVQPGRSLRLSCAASGFTFDDYAMHWVRQAPGKGLEWVSGISWNSGSIGYATSVKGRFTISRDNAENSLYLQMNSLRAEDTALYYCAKYGRGGGYQDYWGQGTLVTVSS the result was nd (0 of 3 replicates; controls 0 of 9).
With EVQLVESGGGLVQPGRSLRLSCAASGFYFDDYAMHWVRQAPGKGLEWVSGISWNSGSWGYADSVKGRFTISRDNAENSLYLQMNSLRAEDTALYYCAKVGRKGGYFDYWGQGTLVTVSS the result was 3.98 (1 of 3 replicates; controls 1 of 9).
With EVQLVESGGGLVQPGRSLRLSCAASGFTFDDYAMHWVRQAPGKGLEWVSGISWNSGSIEWADSVKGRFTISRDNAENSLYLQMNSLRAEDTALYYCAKVGRGGGYFDIWGQGTLVTVSS the result was nd (0 of 3 replicates; controls 0 of 9).

In this assay the parent's reference entry averaged 1.86; its copy inside this library read 0.88.